The nature of this data set: in vivo. The settings on record: male, C57, mouse, ip, 5 mg/kg.

Molecule `COc1ccccc1CCCN1CC[C@@H]2[C@H](C1)c1cccc3c1N2CCO3` (single isomer, unassigned) [Compound I-23] yielded a Kp of 3.38.

(Values after US20250136601A1 (priority 2022, published 2025).)
